Assay results from ChEMBL document CHEMBL1821631, “A novel binding assay identifies high affinity ligands to the rosiglitazone binding site of mitoNEET” (Bioorg Med Chem Lett, 2011).
pIC50: −log10 of the molar value.

Molecular target: T1, CDGSH iron-sulfur domain-containing protein 1 (Homo sapiens, UniProt Q9NZ45)
T1 sequence (Q9NZ45 whole entry): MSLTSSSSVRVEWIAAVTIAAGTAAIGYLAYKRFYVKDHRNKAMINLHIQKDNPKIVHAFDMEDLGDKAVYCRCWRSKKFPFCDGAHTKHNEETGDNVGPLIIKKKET
Test: Displacement of [3H]-rosiglitazone from human recombinant C-terminal His-tagged cytosolic domain of mitoNEET (32-108) by scintillation proximity assay

SMILES | pIC50
CCCN1C(=O)S/C(=C/c2ccncc2)C1=O | 4.71
O=C1NC(=O)/C(=C\c2ccncc2)S1 | 4.65
O=C1NC(=O)/C(=C\c2cccc(Br)c2)S1 | 6.07

More lines, now with the values ahead:

pIC50 | SMILES
5.30 | CN1C(=O)/C(=C\c2ccc(Cl)cc2)SC1=S
5.02 | O=C(O)CCN1C(=O)/C(=C\c2ccccc2)SC1=S
4.82 | CN1C(=O)/C(=C\c2ccccc2)SC1=S
